Experimental findings from ChEMBL document CHEMBL1134132, “Development of potent and selective factor Xa inhibitors” (Bioorg Med Chem Lett, 2001) are described below.

Protein sequences, listed by entry. Tags and fused reporters are not part of them. Residues count along the entry.
UniProt P00742, 41-179 limits assumed: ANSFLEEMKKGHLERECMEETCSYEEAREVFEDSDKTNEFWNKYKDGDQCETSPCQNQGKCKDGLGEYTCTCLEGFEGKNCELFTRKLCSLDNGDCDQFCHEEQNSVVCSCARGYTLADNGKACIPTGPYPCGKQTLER
UniProt P00742, 235-488 limits assumed: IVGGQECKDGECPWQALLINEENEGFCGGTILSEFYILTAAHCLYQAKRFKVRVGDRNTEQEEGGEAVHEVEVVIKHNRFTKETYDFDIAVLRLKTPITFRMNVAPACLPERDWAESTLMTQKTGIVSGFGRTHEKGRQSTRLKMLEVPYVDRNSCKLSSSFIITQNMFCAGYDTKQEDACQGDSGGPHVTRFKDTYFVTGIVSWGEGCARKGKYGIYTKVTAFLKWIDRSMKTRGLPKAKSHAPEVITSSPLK

As usually defined, the Ki is a dissociation constant, usually derived from enzyme kinetics or from competition with a known ligand. Low readings indicate higher affinity, high ones lower affinity.

The assay concerns the target Coagulation factor X (Homo sapiens, UniProt P00742). Description: Inhibitory activity against Coagulation factor X in human plasma. In kind it is cell-free.

On to `Cc1ccc(O)c(-c2cc3cc(C(=N)N)ccc3[nH]2)c1`, for which the Ki stood at 4.3 µM.
